In publication PMC9423820, “Melittin-derived peptides exhibit variations in cytotoxicity and antioxidant, anti-inflammatory and allergenic activities” (Animal Cells and Systems, 2022):

Test system: HeLa cells
Experiment: MTS cell viability assay (CellTiter 96 Aqueous One), HeLa
Type: cell-based, human
Settings: 2.5 μM, 24 h, n = 3
From the text: Human pulmonary bronchial epithelial BEAS-2B, human epithelial cervix carcinoma HeLa, murine macrophage RAW 264.7, and rat basophilic leukemia mast RBL-2H3 cells were purchased from American Type Culture Collection (ATCC, VA, USA). BEAS-2B cells were maintained in bronchial epithelial basal medium (BEBM; Lonza, Basel, Switzerland). HeLa, RAW 264.7, and RBL-2H3 cells were maintained in DMEM supplemented with 10% heat-inactivated fetal bovine serum (Welgene, Gyeongsangbuk-do, Korea) and 1% penicillin and streptomycin (Welgene) at 37 °C in a humidified atmosphere of 5% CO2. Melittin and its derived peptides (Figure 1A) were synthesized by Peptron, Inc. (Daejeon, Korea).
The effect of melittin and melittin-derived peptides on cell viability was evaluated using the CellTiter 96^R Aqueous One Solution Cell Proliferation Assay (Promega, Madison, WI, USA), according to the manufacturer’s instructions (Cambronero-Urena et al. [2021]). BEAS-2B and HeLa cells were seeded (3,000 cells/well) in 96-well plates and incubated for 24 h. […] Thereafter, 20 μL of MTS reagent was added, and absorbance was measured at 490 nm using a microplate reader (Molecular Devices EMax Plus). The formula used to calculate the cell viability is as follows: Cell viability (%)={(A Sample−A [Blank]) / (A [Control])−A [Blank])}×100, Where A is the absorbance for a given wavelength.

CC[C@H](C)[C@H](NC(=O)CN)C(=O)NCC(=O)N[C@@H](C)C(=O)N[C@H](C(=O)N[C@@H](CC(C)C)C(=O)N[C@@H](CCCCN)C(=O)N[C@H](C(=O)N[C@@H](CC(C)C)C(=O)N[C@H](C(=O)N[C@H](C(=O)NCC(=O)N[C@@H](CC(C)C)C(=O)N1CCC[C@H]1C(=O)N[C@@H](C)C(=O)N[C@@H](CC(C)C)C(=O)N[C@H](C(=O)N[C@@H](CO)C(=O)N[C@@H](Cc1c[nH]c2ccccc12)C(=O)N[C@H](C(=O)N[C@@H](CCCCN)C(=O)N[C@@H](CCCNC(=N)N)C(=O)N[C@@H](CCCCN)C(=O)N[C@@H](CCCNC(=N)N)C(=O)N[C@@H](CCC(N)=O)C(=O)N[C@@H](CCC(N)=O)C(N)=O)[C@@H](C)CC)[C@@H](C)CC)[C@@H](C)O)[C@@H](C)O)C(C)C)C(C)C [Melittin]
cellular activity (cell viability): 60%
